What was measured:
satellite cells [1] = assay: Satellite cell proliferation screen and dose response (image-based cell count)
SMPs = assay: Proliferation of SMPs in combination with bFGF; conditions: compound refreshed daily then removed; fixation on Day 4
myoblast = conditions: differentiation media comprising 5% horse serum; FIG. 39
human satellite cells = conditions: 1nM, relative to the DMSO control; FIG. 38
satellite cells [2] = assay: LINCS library screen for satellite cell proliferation (Hoechst 33342 high content imaging); conditions: determined in dose response; Tg:Pax7-nGFP satellite cells, 4 days

Question: What does the source list for `OC[C@H]1O[C@@H](n2cnc3c(NC4CCCC4)ncnc32)[C@H](O)[C@@H]1O`?
Answer: in vitro satellite cell proliferation (satellite cells [1]; Example 2 screen of approximately 400 compounds, FIG. 35): found to increase in vitro satellite cell proliferation; proliferation levels versus negative control (satellite cells [1]; re-supplied compounds, dose response, 50 cells/well, DMSO 1±0.4): effective and produced proliferation levels much greater than that seen in the negative control; additive or synergistic action with bFGF on proliferation (SMPs): seen to synergize with bFGF in vitro; myoblast differentiation (myoblast): drive myoblast differentiation

Question: For `CC(C)(C)c1cc(NC(=O)Nc2ccc(-c3cn4c(n3)sc3cc(OCCN5CCOCC5)ccc34)cc2)no1`, which “increase of human satellite cells” value (human satellite cells) is on record?
Answer: The value was “more than 2 fold”.

Question: For `CCN(CC)CCNC(=O)c1c(C)[nH]c(/C=C2\C(=O)Nc3ccc(Cl)cc32)c1C`, which “Initial hit Conc.” value (satellite cells [1]; primary screen session one, hit = greater than one standard deviation over DMSO control) is on record?
Answer: Its value is 1 µM.

Question: With `CCOc1cc(N2CCC(O)CC2)ccc1Nc1ncc2c(n1)N(C)c1ccccc1C(=O)N2C` as the compound, how does the Optimal treatment concentration (satellite cells [2]) read?
Answer: Its Optimal treatment concentration is 3 µM.
